Results taken from PubChem BioAssay AID485350 (ICCB-Longwood Screening Facility, Harvard Medical School, 2010).
Only a part is listed here, and it is no random draw. Some results for these compounds are left out of this collection, so the calls shown say nothing about other tests. Calls of active or inactive are those of the source. Cut-off read from the data, not from the text of the source: active = inhibition above about 25% (passing the limit was not always enough); inactive = the rest.

These compounds were tested on BasE (2,3-dihydroxybenzoate-AMP ligase), Acinetobacter baumannii ATCC 17978 (assay: BasE siderophore enzyme inhibitors, primary screen, biochemical, Acinetobacter baumannii ATCC 17978, fluorescence polarization (AID 485350;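 note: 0% = negative plate control signal and 100% = positive plate control signal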)). Conditions: purified BasE, fluorescence polarization binding displacement; active compounds read high; concentration not given here.

SMILES	inhibition
CN1C2CCC1CC(OC(=O)C(O)(c1ccccc1)c1ccccc1)C2 (configuration not stated)	inactive: 1.22%
O=C(NCC1(N2CCCCC2)CCCCC1)c1ccc2c(c1)OCCO2	inactive: -0.46%
CN(C)C1(CNC(=O)c2ccncc2)CCCCC1	inactive: -0.33%
N#CC(C#N)=Cc1ccccc1	inactive: 3.61%
COc1ccc(OC)c(C=C(C#N)C#N)c1	inactive: 3.19%
CN(C)c1ccc(C(=O)NCC2(N(C)C)CCCCC2)cc1	inactive: -0.93%
O=C(NCC1(N2CCOCC2)CCCCC1)c1cnc(Cl)c(Cl)c1	inactive: 1.41%
